Earlier results on 1 compound are cited in publication PMC4106900 (Journal of medicinal chemistry, 2012).

The test system of the series is S1R. As to conditions: cited from earlier work.

Turning to `CCCc1ccc2c(c1)sc(=O)n2CCN1CCCCCC1` [compound 9], the S2R/S1R selectivity is on record as more than 1000.
